# Reference: patent US20230227484A1, “PYRIMIDINE COMPOUND AS AXL INHIBITOR” (NANJING CHIA TAI TIANQING PHARMACEUTICAL CO., LTD., priority 2020, published 2023)
# Biological target: T1, AXL kinase (Homo sapiens, UniProt P30530)
# T1 construct: purchased Carna 08-107
# T1 sequence (P30530 473-894 limits assumed): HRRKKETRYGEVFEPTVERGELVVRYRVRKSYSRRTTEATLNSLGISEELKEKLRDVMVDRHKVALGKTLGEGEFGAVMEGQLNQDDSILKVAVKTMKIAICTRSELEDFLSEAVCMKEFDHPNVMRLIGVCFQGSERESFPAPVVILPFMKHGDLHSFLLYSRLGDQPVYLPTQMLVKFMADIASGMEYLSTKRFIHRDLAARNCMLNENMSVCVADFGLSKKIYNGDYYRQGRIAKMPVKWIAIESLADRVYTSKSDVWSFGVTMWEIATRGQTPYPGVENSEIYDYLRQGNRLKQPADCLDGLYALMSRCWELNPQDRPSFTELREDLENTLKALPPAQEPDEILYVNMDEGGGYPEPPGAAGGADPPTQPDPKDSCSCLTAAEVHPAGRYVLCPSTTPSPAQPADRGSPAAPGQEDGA
# Test: Inhibitory activity of compound against AXL kinase (HTRF KinEASE)
# Assay type: biochemical
# Conditions: AXL enzyme (Carna, 08-107), ATP 15 μM; "<" means below detection limit of the test
# Experimental: a) AXL enzyme (Carna, 08-107) configuration and addition: a 1×enzyme buffer (200 μL of Enzymatic buffer kinase 5×, 10 μL of 500 mM MgCl2, 10 μL of 100 mM DTT and 6.26 μL of 2500 nM SEB are added with […] of H2O, and prepared into 1 ml of 1× enzyme buffer) is used. AXL enzyme is diluted from 33.33 ng/uL to 0.027 ng/μL (1.67×, final conc.=0.016 ng/uL), a BioTek (MultiFlo FX) automatic liquid dispenser is used, and 6 μL of enzyme solution having a 1.67-fold final concentration is added respectively to compound wells and positive control wells; and 6 μL of 1×Enzymatic buffer is added to negative control wells. […]
# d) Pirparation and addition of detection reagent: Streptavidin-XL665 (Cisbio, 610SAXLG) is diluted with HTRF KinEASE detection buffer (cisbio) from 16.67 μM to 250 nM (4×), and the final concentration is 62.5 nM; TK Antibody-Cryptate (Cisbio) is diluted with HTRF KinEASE detection buffer (cisbio) from 100× to 5×, and the final concentration is 1×; XL665 and Antibody are mixed in equal volume; the mixed solution is added to each well at 10 μL by using the BioTek automatic dispenser, centrifuged at 2500 rpm for 30 s, and reacted at 25° C. for 1 h. After the reaction is completed, the resulting product is detected by a multi-function plate reader HTR1p […]
smiles,measurement,value
"CN1CCN(Cc2ccc(Nc3ncc(Cl)c(Nc4ccccc4S(=O)(=O)N(C)C)n3)cc2)CC1 [Positive drug 2 (TP0903), TP0903, reference compound]",IC50,16.4 nM
